Measured values reported in publication PMC11910330, “Familial Alzheimer’s disease mutations in amyloid precursor protein impair calcineurin signaling to NMDA receptors” (The Journal of Biological Chemistry, 2024).

Test system: human recombinant GST-CaN
Test: Peptide/CaN interaction assay (biotinylated peptides on streptavidin beads, GST-CaN pull-down, Western blot)
Assay type: binding
Conditions: Fig. 1H, 10 μg N-terminally biotinylated peptide on streptavidin beads, 200 ng GST-CaN, 30 min, 4 °C, mean (n=7; APP-17mer n=3)
Source text: Recombinant rabbit monoclonal to APP (clone Y188; Abcam cat# ab32136; 1:5000 dilution), rabbit polyclonal to APLP1 (Proteintech cat # 12305-2-AP; 1:1000 dilution), and rabbit polyclonal to APLP2 (Proteintech cat # 15041-1-A; 1:500 dilution) were used to detect native APP family members on western blots or recombinant GFP-tagged APP family members as validation (see Fig. S1). A horseradish peroxidase (HRP)-conjugated goat anti-rabbit antibody (Sigma-Aldrich Cat# 12-348; 1:10,000 dilution) was used as secondary antibody for these western blots, while an HRP-conjugated mouse monoclonal antibody to GFP (Invitrogen cat # MA 515256HRP; 1:1000 dilution) was used to independently verify the expression of GFP or GFP-tagged APP family members. […]
Either PBS with fresh 0.1% Tween-20 and 0.1% bovine serum albumin added or a modified IP buffer (150 mM NaCl, 10 mM Hepes; 5 mM EDTA; pH 7.4) with fresh 0.5% CHAPSO and 0.1% bovine serum albumin was used for these assays. […] Following three washes (400 μl; 5 min each), complexes were eluted in 40 μl 2× Laemmli buffer, and samples were separated by SDS-PAGE and analyzed by Western blotting as above. […]

Sequence: MAGPHPVIVITGPHEE [reference compound]
- percent of CaN recovered (signal for each/signal for CaN standard * 40%): 60.61%
